Our source for the MTD values is article PMC2063102, “Enhancement of the anti-tumour effects of the antivascular agent 5,6-dimethylxanthenone-4-acetic acid (DMXAA) by combination with 5-hydroxytryptamine and bioreductive drugs” (British Journal of Cancer, 1998).

The series in a line: in vivo. The settings on record: female, C3H/HeN, mouse.

Take `Cc1ccc2c(=O)c3cccc(CC(=O)O)c3oc2c1C` [DMXAA, 5,6-dimethylxanthenone-4-acetic acid]: the MTD was 90 µmol/kg. Besides, under “ip”, the MTD is 90 µmol/kg.
